“And” between values parts separate entries of the source, which are not always exact repeats. Equal values may be shown once. Where a name gives a salt, the structure may show the parent alone. Read-outs that look alike come from different tables or passages of the source.

Amino acid sequences for entries named in this document (tags omitted). Residues count along the entry.
UniProt P22303, 32-614: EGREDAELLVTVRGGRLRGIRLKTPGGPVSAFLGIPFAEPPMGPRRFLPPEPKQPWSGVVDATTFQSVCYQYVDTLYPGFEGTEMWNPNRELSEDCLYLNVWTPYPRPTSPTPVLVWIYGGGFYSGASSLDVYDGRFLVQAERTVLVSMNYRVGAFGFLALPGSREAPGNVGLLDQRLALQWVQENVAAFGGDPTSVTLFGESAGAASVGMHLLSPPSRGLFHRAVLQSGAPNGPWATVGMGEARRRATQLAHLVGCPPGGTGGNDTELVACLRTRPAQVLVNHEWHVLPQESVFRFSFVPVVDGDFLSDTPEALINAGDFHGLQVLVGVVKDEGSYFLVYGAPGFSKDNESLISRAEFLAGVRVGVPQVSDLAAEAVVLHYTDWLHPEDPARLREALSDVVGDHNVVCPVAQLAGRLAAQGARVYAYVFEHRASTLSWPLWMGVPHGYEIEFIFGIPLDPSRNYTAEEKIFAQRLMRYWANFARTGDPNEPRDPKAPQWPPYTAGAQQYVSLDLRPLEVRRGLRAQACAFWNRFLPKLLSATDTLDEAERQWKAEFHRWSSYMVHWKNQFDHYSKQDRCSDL

Test [1] addresses T1, recombinant human AChE (Homo sapiens, UniProt P22303).
For test [2], the target named is AChE in neural stem cells (Homo sapiens, UniProt P22303). The test is described as follows: cell-based.
The next test deals with AChE in SH-SY5Y cells (Homo sapiens, UniProt P22303). Kind of test: cell-based.
The target of test [3] is AChE in neural stem cell spheroids (Homo sapiens, UniProt P22303). The test is described as follows: cell-based. As to conditions: for IC50: potency (IC50).
Test [4] addresses T1, recombinant human AChE. Kind of test: biochemical.
Test [5] has as its target T1, recombinant human AChE. Kind of test: biochemical. This is another data set of the same source.
Test [6] deals with AChE in SH-SY5Y spheroids (Homo sapiens, UniProt P22303). Kind of test: cell-based. As to conditions: for IC50: potency (IC50).
Test [7] concerns the target T1, recombinant human AChE. The test is described as follows: biochemical. The class given is biochemical. As to conditions: for AC50: AC50 (uM).
Test [8] has as its target T1, recombinant human AChE. The test is described as follows: biochemical. The source holds these as a separate data set.
The mark [9] stands for this setting: potency (IC50), Enzyme with microsomes.
The mark [10] stands for this setting: potency (IC50), SH-SY5Y cells monolayer.
The mark [11] stands for this setting: Neural stem cell spheroid (24 h).
[12] abbreviates: Neural stem cell spheroid (48 h).
For IR or R in this document: key: Reversible (R); Irreversible (IR); ND, not detected in enzyme-based AChE inhibition assay from current study.

For the compound `Oc1c(Cl)cc(Cl)c(Cl)c1Cc1c(O)c(Cl)cc(Cl)c1Cl` [Hexachlorophene, reference compound], at recombinant human AChE [1], the “CC-v2 (curve classes)” value stood at 4 and the “potency (IC50), Enzyme with microsomes” value is “Inactive”. In addition, in test [2], the “potency (IC50), Neural stem cells monolayer” value was “Inactive”. In addition, on AChE in SH-SY5Y cells, the “potency (IC50), SH-SY5Y cells monolayer” value is listed as “Inactive”. Besides, the IC50 at AChE in SH-SY5Y cells (IC50 (uM)) is 89.4 µM and 89.1 µM and 79.4 µM. Also, in test [3], the “potency (IC50), Neural stem cell spheroid (24 h)” value was “Inactive” and the “potency (IC50), Neural stem cell spheroid (48 h)” value is on record as “Inactive”. Further, on recombinant human AChE [4], the “potency (IC50), Enzyme-based assay with heat-inactivated microsomes” value is given as “Inactive”. Besides, the “CC-v2 (curve classes)” value at recombinant human AChE [5] is -1.1. The IC50 at recombinant human AChE [5] (IC50 (uM)) is 9.77 µM and 10 µM and 15.9 µM and 11.2 µM. In addition, at recombinant human AChE [5] (potency (IC50), Enzyme), the IC50 was 14.9 µM. Also, in test [6], the “potency (IC50), SH-SY5Y spheroids (24 h)” value is recorded as “Inactive” and the “potency (IC50), SH-SY5Y spheroids (48 h)” value is “Inactive”. In addition, on recombinant human AChE [7], the “IR or R” value was “R”; the concentration at half-maximal activity (AC50) is 8.63 µM and 12.2 µM (2×) and 9.68 µM and 13.7 µM and 10.9 µM and 27.3 µM and 30.6 µM.

Turning to `CCOP(=O)(OCC)OC(=CCl)c1ccc(Cl)cc1Cl` [Chlorfenvinphos], the IC50 was 7.1 µM at recombinant human AChE [8] (IC50 (uM)); 11.3 ± 0.76 µM on recombinant human AChE [8] (setting [9]); 0.2 ± 0.07 µM in test [2]; 2.52 µM and 1.78 µM against AChE in SH-SY5Y cells (IC50 (uM)); 1.95 ± 0.41 µM against AChE in SH-SY5Y cells (setting [10]); 0.03 ± 0.02 µM in test [3] (setting [11]). Moreover, the half-inhibitory concentration (IC50) in [3] (setting [12]) came out at 0.04 ± 0.01 µM; at recombinant human AChE [4], 7.16 ± 0.91 µM; on recombinant human AChE [5] (IC50 (uM)), 2 µM; at recombinant human AChE [5] (potency (IC50), Enzyme), 9.72 ± 1.11 µM; in [6] (SH-SY5Y spheroids (24 h)), 1.55 ± 1.11 µM; in [6] (SH-SY5Y spheroids (48 h)), 1.53 µM. The half-maximal activity concentration (AC50) on recombinant human AChE [7] is 15.3 µM and 13.7 µM (2×) and 17.2 µM and 9.68 µM and 6.11 µM and 8.63 µM.

Regarding `CNC(=O)O/N=C/C(C)(C)SC` [Aldicarb], the IC50 on recombinant human AChE [8] (IC50 (uM)) is 31.7 µM and 40.3 µM; on recombinant human AChE [8] (setting [9]), 9.57 ± 0.62 µM; in [2], 7.31 ± 0.49 µM; against AChE in SH-SY5Y cells (IC50 (uM)), 5.64 µM and 6.39 µM and 5.02 µM; at AChE in SH-SY5Y cells (setting [10]), 10.7 ± 0.69 µM; in test [3] (setting [11]), 5.04 ± 0.94 µM. For the same compound, the IC50 in test [3] (setting [12]) is 8 ± 5.23 µM; at recombinant human AChE [4], 14.7 ± 1.87 µM; at recombinant human AChE [5] (IC50) it was 8.89 µM; at recombinant human AChE [5] (IC50 (uM)) it was 11.2 µM and 18 µM; on recombinant human AChE [5] (potency (IC50), Enzyme), 9.25 ± 1.17 µM; in [6] (SH-SY5Y spheroids (24 h)), 15.6 ± 6.69 µM. The compound further registered an IC50 in [6] (SH-SY5Y spheroids (48 h)) of 10.3 ± 0.7 µM. Moreover, the “CC-v2 (curve classes)” value on recombinant human AChE [1] is -2.1; at AChE in SH-SY5Y cells, -1.1; at recombinant human AChE [5], -1.1. Besides, the “reversibility of AChE inhibition (result in words)” value on recombinant human AChE [7] is recorded as “significant IC50 difference at 60 min”. For the same compound, the AC50 at recombinant human AChE [7] is 22.2 µM and 35.2 µM and 44.4 µM and 28 µM and 5.59 µM and 8.85 µM and 11.1 µM.

In the case of `COc1cc(C(=O)NCc2ccc(OCCN(C)C)cc2)cc(OC)c1OC` [Trimethobenzamide·HCl, reference compound], the IC50 at recombinant human AChE [8] (setting [9]) was 21.8 ± 2.5 µM; in [2], 10.6 ± 4.17 µM; at AChE in SH-SY5Y cells (setting [10]), 10.2 ± 2.31 µM; in test [3] (setting [12]) it was 20.8 µM; at recombinant human AChE [4], 21.7 µM; at recombinant human AChE [5] (potency (IC50), Enzyme), 13.2 ± 1.82 µM. Further, the half-maximal inhibitory concentration (IC50) in [6] (SH-SY5Y spheroids (24 h)) is 7.56 ± 1.83 µM; in [6] (SH-SY5Y spheroids (48 h)), 12.7 ± 0.86 µM. Further, the “potency (IC50), Neural stem cell spheroid (24 h)” value in test [3] was “Inactive”. Further, the “IR or R” value on recombinant human AChE [7] is “R”. Besides, at recombinant human AChE [7], the AC50 is 15.3 µM (3×) and 19.3 µM (3×) and 17.2 µM and 21.7 µM.

`O=C(CCC1CCN(Cc2ccccc2)CC1)c1ccc2c(c1)NCCCC2.O=C(O)/C=C/C(=O)O` [Zanapezil fumerate, reference compound]: the 50% inhibitory concentration (IC50) on recombinant human AChE [8] (IC50 (uM)) is 3.09 µM; on recombinant human AChE [8] (setting [9]), 0.56 ± 0.03 µM; in test [2] it was 3.56 ± 2.2 µM; against AChE in SH-SY5Y cells (IC50 (uM)), 0.245 µM; on AChE in SH-SY5Y cells (setting [10]), 0.24 µM; in test [3] (setting [11]), 5.91 ± 0.81 µM. The IC50 was 8.78 ± 2.01 µM in test [3] (setting [12]); 0.87 ± 0.1 µM at recombinant human AChE [4]; 1.74 µM at recombinant human AChE [5] (IC50 (uM)); 0.68 ± 0.07 µM on recombinant human AChE [5] (potency (IC50), Enzyme); 0.15 ± 0.09 µM in test [6] (SH-SY5Y spheroids (24 h)); 0.13 ± 0.02 µM in test [6] (SH-SY5Y spheroids (48 h)). In addition, the half-maximal activity concentration (AC50) at recombinant human AChE [7] was 343 nM and 769 nM and 968 nM (2×) and 611 nM and 685 nM (2×) and 544 nM and 863 nM.

These data come from publication PMC8041433 (Environmental Health Perspectives, 2021).
